As usually defined, the Kd is the free concentration of one partner at which half of the binding sites on the other are occupied at equilibrium, for simple one-to-one binding.

This assay concerns the target FEM1B-EB-EC ternary complex (human, UniProt Q9UK73 1-627; Q15370 1-118; Q15369 17-112). Kind of assay: ITC. Background: ITC needs no label: the signal is the heat of the interaction.

Take GGGSGGGSLKTFKPIDLSDLKRRSTQDAKKS [MCRIP1 C-degron (C-term 23-mer), SUMO fusion]: binding was put at a Kd of 1.9 µM. In turn, GGGSGGGSHSLRAVSTDPPHHDHHDEFCLMP [BEX2 C-degron (C-term 23-mer), SUMO fusion] gave a Kd of 6.8 µM.

The values are drawn from paper PMC11053023 (2024).
